Experimental data published in patent US11021454B2, “Type of aryl benzofuran amidated derivative and medical use thereof” (CHINA PHARMACEUTICAL UNIVERSITY, priority 2016, dated 2021).

What was measured:
[1] = test system: LPS-stimulated macrophage RAW 264.7; test: Scavenging of superoxide anion in LPS-stimulated macrophage RAW 264.7 (2-OH-E+ by LC-MS); assay type: cell-based; details: LPS-stimulated RAW 264.7
Procedure: The antioxidant activity (the ability to scavenge superoxide anion) of the synthesized benzofuran amidated derivative is evaluated by a cell model.
After phagocytosis of bacteria, senescent denatured cells, immune complexes or oxidized low-density lipoproteins, mammalian macrophages cells enter a functional activation state, with enhanced intracellular lysosomal function and increased ROS levels, and they secrete and synthesize inflammatory cytokines. Lipopolysaccharide (LPS) is the main component of the cell wall of Gram-negative bacteria and is the main material basis for its pathogenesis; it can stimulate the production of monocytes/macrophages and release a large amount of reactive oxygen species (mainly including O2^− and H2O2), inflammatory factors such as nitric oxide (NO), IL-1β and Tumor necrosis factor-α (TNF-α) that are involved in the acute phase response of the body, causing inflammatory damage to the body. The present invention utilizes the LPS-stimulated macrophage model to evaluate the antioxidant activity of benzofuran amidated derivatives to scavenge superoxide anion at the cellular level.
13.1 Preparation of Reagents and Standard Solutions
(2) LPS: accurately weigh the appropriate amount of LPS, and prepare a sample stock solution of 0.1 g/ml, with DMEM and store at −20° C. for later use.
(3) Probe Stabilizer DTPA: Weigh accurately the amount of DTPA, prepare a 20 mM sample stock solution with DMSO, dilute to 100 µM with PB, and store at 4° C. for use.
(4) HE: Prepare a 20 mmol/L stock solution by dissolving the probe with dimethyl sulfoxide under anaerobic and dark conditions, and store at −80° C. in the dark. Take it out before use, prepare a 10 μmol/L solution with DMEM, place it on ice and store it in the dark.
LPS stimulated macrophage RAW 264.7 modeling and administration:
(1) RAW 264.7 cells are cultured in Petri dishes (60 mm), 4 mL per dish, and incubated in a 5% CO2 incubator with saturated humidity at 37° C. The experiment is divided into blank group, model group and drug-administered group. The model group and the drug-administered group are respectively added with the modeling agent LPS (prepared with DMEM) and the optimal LPS concentration is 0.1 μg/mL, while the modeling time is 24 h; take vitamin E as a positive control.
(2) After 12 h of cell culture, the supernatant is discarded, and the test drug with a final concentration of 10 μM containing 0.1 μg/mL LPS medium is added, and two parallel holes are provided for each sample to be tested.
(3) Continue to culture in a cell culture incubator for 24 h, the supernatant is discarded, the cells are washed with PBS, and added to DMEM medium containing the probe HE (10 μM) and cultured in the dark for 30 min.
(4) The cells are then washed twice with ice-cold PBS/(100 μM) DTPA, then added 1 mL PBS/(100 μM) DTPA, before the cells are divided into two with a spatula (700 μL and 300 μL) and collected into EP tubes; then they are centrifuged at 13,000 rpm for 10 min at 4° C., the supernatant is removed, and the cell pellet are stored at −80° C. for future use. The first one contains 700 μL cell solution for the determination of LC-MS content of the test substance 2-OH-E^+, while the second one contains 300 μL cell solution for the determination of cell protein concentration.
13.3 LC-MS Analysis Conditions, Sample Pretreatment and Data Processing Methods
(1) LC-MS chromatographic conditions: instrument: Agilent 1100 series LC-QMS; column: Agilent Zorbax SB-Aq (4.6×50 mm, 1.8 μm); mobile phase: 0.1% formic acid-water (phase A); 0.1% formic acid-acetonitrile (B); gradient conditions: 0˜2 min, 5%˜30% B; 2˜5 min, 30% B; 5˜7 min, 30%˜100% B; 7˜10 min, 100% B; flow rate: 1 mL/min; MS condition: positive ion mode, SIM (SIM1: 1.2˜3 min [M+H]^+288 (galantamine); 3˜10 min [M]^+330 (2-OH-E^+)); cracking voltage: 120 V; nitrogen flow rate: 10.0 L/min; […]

Normal hepatocyte LO2 = test: Inhibition of uric acid production in xanthine-modelled hepatocyte cell model; assay type: cell-based; details: xanthine modeling
Procedure: The effect of benzofuran amidated derivatives on uric acid production is evaluated using a cell model.
(2) Experimental procedure: Normal hepatocyte LO2 are inoculated in a 6-well plate (plate density 1×10^6 cells/mL), and cell experiments are performed after 4 hours of plating. The experiment is divided into blank group, model group and drug-administered group; the model group and the drug-administered group are respectively added with the modeling agent xanthine (prepared with DMSO as a stock solution), while the blank group is added with the same volume of DMSO, and the Febuxostat is used as a positive control.
(3) Pre-treatment of mass spectrometry: take 100 μL of the medium collected, add MeOH 400 μL, CHCl3 100 μL and H2O 300 μL, perform vortex mixing, and centrifuging at 20000 g for 10 min, then take the upper layer for concentration and dry. Reconstitute H2O 100 μL, and add 10 μL of internal standard substance galantamine (1.25 μM) (final concentration 0.125 μM), centrifuge at 13,000 rpm for 10 min, and take the upper layer for LC-MS analysis.

Row | SMILES | scavenging effect on superoxide anion compared to the model group [1] | inhibitory effect on the formation of uric acid in hepatocyte model (Normal hepatocyte LO2)
1 | COC(=O)[C@H](C)NC(=O)/C=C/c1ccc(O)c2oc(-c3ccc(O)c(O)c3)cc12 [Compound 5c, Methyl (E)-(3-(2-(3,4-dihydroxyphenyl)-7-hydroxybenzofuran-4-yl)acryloyl)-L-alaninate] | obvious scavenging effect | 
2 | O=C(/C=C/c1ccc(O)c2oc(-c3ccc(O)c(O)c3)cc12)N[C@@H](Cc1ccccc1)C(=O)O [Compound 6d, (E)-(3-(2-(3,4-dihydroxyphenyl)-7-hydroxybenzofuran-4-yl)acryloyl)-L-phenylalanine] | obvious scavenging effect | 
3 | O=C(/C=C/c1ccc(O)c2oc(-c3ccc(O)c(O)c3)cc12)N[C@H](Cc1ccc(O)c(O)c1)C(=O)O [Compound 6b, (R,E)-3-(3,4-dihydroxyphenyl)-2-(3-(2-(3,4-dihydroxyphenyl)-7-hydroxybenzofuran-4-yl)acrylamido) propanoic Acid] | obvious scavenging effect | 
4 | COC(=O)[C@H](Cc1ccc(O)c(O)c1)NC(=O)/C=C/c1ccc(O)c2oc(-c3ccc(O)c(O)c3)cc12 [Compound 5a, Methyl (S,E)-3-(3,4-dihydroxyphenyl)-2-(3-(2-(3,4-dihydroxyphenyl)-7-hydroxybenzofuran-4-yl)acrylamido)propanoate] | obvious scavenging effect | 
5 | O=C(/C=C/c1ccc(O)c2oc(-c3ccc(O)c(O)c3)cc12)N[C@@H](Cc1ccc(O)cc1)C(=O)O [Compound 6e, (E)-(3-(2-(3,4-dihydroxyphenyl)-7-hydroxybenzofuran-4-yl)acryloyl)-L-tyrosine] | obvious scavenging effect | significant inhibitory effect
6 | COC(=O)[C@@H](Cc1ccc(O)c(O)c1)NC(=O)/C=C/c1ccc(O)c2oc(-c3ccc(O)c(O)c3)cc12 [Compound 5b] | obvious scavenging effect | significant inhibitory effect
